Assay results as given in PubChem BioAssay (NCI).
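These data come from cells grown in 96-well plates and exposed to compound for 48 hours at five concentrations. Abbreviation: GI50, concentration required for 50% inhibition of growth. TGI: total growth inhibition.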

Columns and labels:
Assay in all cases: inhibition of tumour cell growth, NCI panel, 48 h
A498 renal = tested on: A498 renal
A549 NSCLC = tested on: A549 NSCLC
CCRF-CEM leukemia = tested on: CCRF-CEM leukemia
HCT-116 colon = tested on: HCT-116 colon
HOP-62 NSCLC = tested on: HOP-62 NSCLC
HOP-92 NSCLC = tested on: HOP-92 NSCLC
HS 578T breast = tested on: HS 578T breast
K-562 leukemia = tested on: K-562 leukemia
KM20L2 colon = tested on: KM20L2 colon
LOX IMVI melanoma = tested on: LOX IMVI melanoma
LXFL 529 NSCLC = tested on: LXFL 529 NSCLC
MCF7 breast = tested on: MCF7 breast
MDA-MB-231 breast = tested on: MDA-MB-231 breast
MDA-MB-435 = tested on: MDA-MB-435
NCI-H23 lung = tested on: NCI-H23 lung
SK-MEL-2 melanoma = tested on: SK-MEL-2 melanoma
SK-MEL-5 melanoma = tested on: SK-MEL-5 melanoma
SR leukemia = tested on: SR leukemia
T-47D breast = tested on: T-47D breast

With `O=NN(CCSCCCl)C(=O)NC1CCCCC1` the GI50 (A498 renal) was 43.1 µM, the TGI (A498 renal) was > 100 µM and the GI50 (A549 NSCLC) was 30.2 µM. The TGI (A549 NSCLC) was > 100 µM, the GI50 (CCRF-CEM leukemia) was 4.37 µM and the TGI (CCRF-CEM leukemia) was 82.7 µM. The GI50 (HCT-116 colon) was 21.7 µM, the TGI (HCT-116 colon) was 33.5 µM and the GI50 (HOP-62 NSCLC) was 36.1 µM. It also gave a TGI (HOP-62 NSCLC) of 73 µM, a GI50 (HOP-92 NSCLC) of 26.2 µM and a TGI (HOP-92 NSCLC) of 70.5 µM. The GI50 (HS 578T breast) was 9.75 µM, the TGI (HS 578T breast) was 59.2 µM and the GI50 (K-562 leukemia) was 19.4 µM. The TGI (K-562 leukemia) was 37.8 µM, the GI50 (KM20L2 colon) was 29.9 µM and the TGI (KM20L2 colon) was 80.9 µM. For the same compound, the GI50 (LOX IMVI melanoma) was 16.3 µM, the TGI (LOX IMVI melanoma) was 48.2 µM and the GI50 (LXFL 529 NSCLC) was 17.8 µM. The TGI (LXFL 529 NSCLC) was 37.5 µM, the GI50 (MCF7 breast) was 8.96 µM and the TGI (MCF7 breast) was > 100 µM. For the same compound, the GI50 (MDA-MB-231 breast) was 51.5 µM, the TGI (MDA-MB-231 breast) was > 100 µM and the GI50 (MDA-MB-435) was 48.9 µM. The TGI (MDA-MB-435) was > 100 µM, the GI50 (NCI-H23 lung) was 20.3 µM and the TGI (NCI-H23 lung) was 65.9 µM. The GI50 (SK-MEL-2 melanoma) was 44.3 µM, the TGI (SK-MEL-2 melanoma) was 63.7 µM and the GI50 (SK-MEL-5 melanoma) was 47.8 µM. For the same compound, the TGI (SK-MEL-5 melanoma) was > 100 µM, the GI50 (SR leukemia) was 4.13 µM and the TGI (SR leukemia) was 40.8 µM. The GI50 (T-47D breast) was 34.3 µM and the TGI (T-47D breast) was > 100 µM.
